The list shows a part of the results, in another mix than the full data. Results filed as inconclusive are left out. Active and inactive are the calls of the source. Calls follow the shape of the dose curve; as a rule, active = well fitted curve in the direction sought with a large enough effect; inconclusive = small, poorly fitted or top-dose-only effect, or another doubt; inactive = no such curve, though single readings can be large; an effect the other way counts as inactive or inconclusive.
Legend:
[1] = Cell Viability - LYMP1-003 - Assay at 24 hr (AID 963); also: potency is read from the fitted curve at half-maximal effect;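 as to viability change, negative = cytotoxic: plate controls were DMSO only for no effect and tetraoctylammonium bromide positive control for full effect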
How it was run: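 Human lymphoblastoid LYMP1-003 cells, 2500/well, treated 24 h at 37 C in complete medium. Viability read as intracellular ATP by CellTiter-Glo luminescence after 30 min at room temperature; AC50 from Hill-equation fits of qHTS concentration-response.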

[2] = Cell Viability - LYMP1-003 - Assay at 40 hr (AID 964); conditions: LYMP1-003 lymphoblastoid viability; at 92.2 µM (top of the series); also: % is scaled to controls: 0 for no effect and ±100 for the full control effect; nearly all actives have a fitted effect of over 60% in size
How it was run: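 LYMP1-003 human lymphoblastoid cells, 2500/well, preincubated 5 h at 37 C, then treated with compound for 40 h at 37 C. Intracellular ATP read by CellTiter-Glo luminescence after 30 min at room temperature; AC50 from Hill-equation fits.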

[3] = Cell Viability - LYMP2-003 (AID 965); conditions: LYMP2-003 lymphoblastoid cell viability; at 92.2 µM (top of the series);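 also: cells exposed to compounds for 24 h before reading; 0% = DMSO only and full effect = 92 µM tetraoctylammonium bromide; nearly all actives have a fitted effect of over 50% in size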
How it was run: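 Human lymphoblastoid LYMP2-003 cells, 2500/well, exposed to compounds for 24 h at 37 C in complete medium. Viability read as intracellular ATP by CellTiter-Glo luminescence; AC50 from Hill-equation fits of qHTS concentration-response data.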

[4] = Cell Viability - LYMP2-004 (AID 966); conditions: LYMP2-004 lymphoblastoid cell viability, qHTS; at 92.2 µM (top of the series);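 also: plate controls were DMSO only for no effect and tetraoctylammonium bromide control for full effect; nearly all actives have a fitted effect of over 65% in size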
How it was run: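 Lymphoblastoid LYMP2-004 cells, 2500 per well, were preincubated for 5 hr and then treated with compound for 24 h at 37 C in complete medium. Viability was read as cellular ATP by CellTiter-Glo luminescence, and AC50 values were taken from Hill fits to concentration-response data.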

[5] = Cell Viability - LYMP2-005 (AID 967); conditions: LYMP2-005 lymphoblastoid cell viability; at 92.2 µM (top of the series);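 also: plate controls were DMSO only for no effect and 92 µM tetraoctylammonium bromide control for full effect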
How it was run: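 Human lymphoblastoid LYMP2-005 cells, 2,500 per well in complete medium, rested 5 h at 37C then compound-treated 24 h at 37C. Intracellular ATP read by CellTiter-Glo luminescence after 30 min at room temperature; AC50 from Hill-equation fits of concentration-response data.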

[6] = Cell Viability - LYMP2-009 (AID 968); conditions: LYMP2-009 lymphoblastoid cell viability; at 92.2 µM (top of the series);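 also: 0% = DMSO alone and the full-kill end = tetraoctylammonium bromide at 92 µM; nearly all actives have a fitted effect of over 55% in size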
[7] = Cell Viability - LYMP2-011 (AID 969); conditions: LYMP2-011 lymphoblastoid cells viability; at 92.2 µM (top of the series);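 also: 0% = DMSO only and full inhibition = 92 µM tetraoctylammonium bromide; nearly all actives have a fitted effect of over 60% in size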
How it was run: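 2500 cells/well in complete medium, compound-treated 24 h at 37 C. Viability read as intracellular ATP by CellTiter-Glo luminescence after 30 min at room temperature. AC50 from Hill fits of qHTS concentration-response data.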

[8] = Cell Viability - LYMP2-013 (AID 970); conditions: LYMP2-013 lymphoblastoid cells viability; at 92.2 µM (top of the series);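 also: 0% = DMSO only and full inhibition = tetraoctylammonium bromide control; nearly all actives have a fitted effect of over 55% in size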
How it was run: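 Human lymphoblastoid LYMP2-013 cells, 2500/well, treated 24 h at 37 C in complete medium; viability as intracellular ATP by CellTiter-Glo luminescence after 30 min. AC50 from Hill fits of qHTS concentration-response.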

[9] = Cell Viability - LYMP2-015 (AID 971); conditions: LYMP2-015 lymphoblastoid cell viability; at 92.2 µM (top of the series);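 also: 0% = DMSO only and full effect = 92 µM tetraoctylammonium bromide; nearly all actives have a fitted effect of over 55% in size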
How it was run: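 LYMP2-015 human lymphoblastoid cells (2500/well) in complete medium, compound-treated 24 h at 37 C; viability read as cellular ATP by CellTiter-Glo luminescence after 30 min at room temperature. AC50 from Hill-equation fits of qHTS concentration-response data.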

[10] = Cell Viability - LYMP2-017 (AID 972); conditions: LYMP2-017 lymphoblastoid cell viability; at 92.2 µM (top of the series); also: % is scaled to controls: 0 for no effect and ±100 for the full control effect; nearly all actives have a fitted effect of over 55% in size
How it was run: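 LYMP2-017 human lymphoblastoid cells (2500/well) settled 5 hr at 37 C, then exposed to compound 24 hr at 37 C in complete medium. Viability taken as intracellular ATP by CellTiter-Glo luminescence after 30 min at RT; AC50 from Hill fits.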

[11] = Cell Viability - LYMP2-019 (AID 973); conditions: LYMP2-019 lymphoblastoid cell line viability; at 92.2 µM (top of the series)
How it was run: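 Human lymphoblastoid LYMP2-019 cells (2500/well) preincubated 5 h at 37 C, then treated 24 h at 37 C in complete medium. Viability by CellTiter-Glo ATP luminescence after 30 min at room temperature; AC50 from Hill fits.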

[12] = Cell Viability - LYMP2-021 (AID 974); conditions: LYMP2-021 lymphoblastoid cells viability; at 92.2 µM (top of the series)
How it was run: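 Human lymphoblastoid LYMP2-021 cells, 2500/well in complete medium, treated 24 hours at 37 C. Intracellular ATP by CellTiter-Glo luminescence (30 min, RT); AC50 from Hill fits of concentration-response.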

[13] = Cell Viability - LYMP2-023 (AID 975); conditions: LYMP2-023 lymphoblastoid cell viability; at 92.2 µM (top of the series)
How it was run: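 LYMP2-023 human lymphoblastoid cells, 2500/well, preincubated 5 hr at 37 C, then compound-treated 24 hr at 37 C in complete medium. CellTiter-Glo luminescence (ATP) after 30 min at room temperature; AC50 from Hill-equation fits; tetraoctylammonium bromide positive control.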

[14] = Cell Viability - LYMP2-025 (AID 976); conditions: LYMP2-025 lymphoblastoid cell viability; at 92.2 µM (top of the series);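 also: plate controls were DMSO only for no effect and tetraoctylammonium bromide control for full effect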
How it was run: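 Human lymphoblastoid LYMP2-025 cells, 2500/well, exposed 24 h at 37 C in complete medium in 1536-well qHTS. Viability as cellular ATP by CellTiter-Glo luminescence; AC50 from Hill fits of concentration-response data.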

[15] = Cell Viability - LYMP2-002 (AID 977); conditions: LYMP2-002 lymphoblastoid cell viability, qHTS; at 92.2 µM (top of the series);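 also: compound exposure lasted 24 h at 37 °C; plate controls were DMSO only for no effect and 92 µM tetraoctylammonium bromide for full effect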
How it was run: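 Cytotoxicity is scored as concentration-dependent loss of cellular ATP in a human lymphoblastoid line after 24 hr compound treatment at 37 C. AC50 is obtained by modelling concentration-response data with the Hill equation.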

[16] = Cell Viability - LYMP2-006 (AID 978); conditions: LYMP2-006 lymphoblastoid cell viability, qHTS; at 92.2 µM (top of the series); also: % is scaled to controls: 0 for no effect and ±100 for the full control effect; nearly all actives have a fitted effect of over 60% in size
How it was run: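 Human lymphoblastoid cells (LYMP2-006), 2500/well in complete medium, were treated with compound for 24 hr at 37 C. Cellular ATP was read by CellTiter-Glo luminescence after 30 min, and AC50 values came from Hill-equation fits of concentration-response data.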

[17] = Cell Viability - LYMP2-007 (AID 979); conditions: LYMP2-007 lymphoblastoid cell viability; at 92.2 µM (top of the series);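 also: cells exposed to compound for 24 h before reading; 0% = DMSO only and the negative end = 92 µM tetraoctylammonium bromide; nearly all actives have a fitted effect of over 60% in size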
How it was run: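 Human lymphoblastoid LYMP2-007 cells (2500/well) preincubated 5 h at 37 C, then treated 24 h at 37 C in complete medium. Viability by CellTiter-Glo ATP luminescence after 30 min at room temperature; AC50 from Hill fits.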

[18] = Cell Viability - LYMP2-008 (AID 980); conditions: LYMP2-008 lymphoblastoid cell viability, qHTS; at 92.2 µM (top of the series)
How it was run: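 LYMP2-008 lymphoblastoid cells (2500/well) plated 5 h, then treated 24 h at 37 C in complete medium. Viability read as intracellular ATP by CellTiter-Glo luminescence after 30 min at room temperature; AC50 from Hill fits.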

[19] = Cell Viability - LYMP2-010 (AID 981); conditions: LYMP2-010 lymphoblastoid cell viability, qHTS; at 92.2 µM (top of the series)
How it was run: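 Human lymphoblastoid LYMP2-010 cells (2500/well) treated 24 h at 37 C in complete medium; viability read as intracellular ATP by CellTiter-Glo luminescence. AC50 from Hill fits of concentration-response data; tetraoctylammonium bromide positive control.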

[20] = Cell Viability - LYMP2-012 (AID 982); conditions: LYMP2-012 lymphoblastoid cell viability qHTS; at 92.2 µM (top of the series)

O=[N+]([O-])C(Cl)(Cl)Cl
inactive: Potency [1] | activity change, negative = cytotoxic [2] -11.7% | activity change, negative = cytotoxicity [3] 9.59% | activity change, negative = cytotoxicity [4] 4.78% | activity change, negative = viability loss [5] -27.3% | activity change, negative = viability loss [6] -8.91% | viability change, negative = cytotoxic [7] -4.82% | activity change, negative = cytotoxic [8] -4.6% | activity change, negative = lower viability [9] 1.27% | activity change, negative = cytotoxicity [10] -5.75% | activity change, negative = cytotoxicity [11] 2.58% | activity change, negative = cytotoxicity [12] -0.938% | activity change, negative = cytotoxicity [13] -0.274% | activity change, negative = cytotoxicity [14] -7.13% | activity change, negative = cytotoxic [15] -3.73% | activity change, negative = cytotoxicity [16] -3.38% | activity change, negative = cytotoxicity [17] 1.98% | activity change, negative = cytotoxicity [18] 1.92% | activity, negative = cytotoxicity [19] -3.02% | activity change, negative = cytotoxicity [20] -3.53%

CN(CCCl)CCCl
active: Potency [1] 39.8 µM
